Test results from ChEMBL document CHEMBL1153997, “Discovery of oxazolo[4,5-b]pyridines and related heterocyclic analogs as novel SIRT1 activators” (Bioorg Med Chem Lett, 2009).

Target: T1, NAD-dependent protein deacetylase sirtuin-1 (Homo sapiens) (UniProt Q96EB6)
T1 sequence (whole entry): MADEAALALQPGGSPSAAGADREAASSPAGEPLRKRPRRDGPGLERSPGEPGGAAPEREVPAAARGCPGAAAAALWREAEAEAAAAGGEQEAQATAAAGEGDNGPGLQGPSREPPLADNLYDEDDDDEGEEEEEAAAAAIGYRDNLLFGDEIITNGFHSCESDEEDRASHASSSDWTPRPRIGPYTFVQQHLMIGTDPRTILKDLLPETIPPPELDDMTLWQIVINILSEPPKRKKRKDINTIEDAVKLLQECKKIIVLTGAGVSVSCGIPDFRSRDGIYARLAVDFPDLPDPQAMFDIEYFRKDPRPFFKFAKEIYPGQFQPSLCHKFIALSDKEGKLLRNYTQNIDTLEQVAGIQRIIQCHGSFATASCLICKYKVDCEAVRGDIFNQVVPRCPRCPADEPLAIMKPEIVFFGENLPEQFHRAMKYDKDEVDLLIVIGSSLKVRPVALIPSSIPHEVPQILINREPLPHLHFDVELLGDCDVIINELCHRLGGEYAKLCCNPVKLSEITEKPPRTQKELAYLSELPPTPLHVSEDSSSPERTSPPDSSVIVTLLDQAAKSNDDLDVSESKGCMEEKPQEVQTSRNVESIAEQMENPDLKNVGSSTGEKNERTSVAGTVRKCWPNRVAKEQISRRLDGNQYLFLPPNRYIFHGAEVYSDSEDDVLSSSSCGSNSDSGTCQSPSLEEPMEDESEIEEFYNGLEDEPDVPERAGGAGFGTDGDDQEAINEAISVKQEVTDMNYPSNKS
Assay: Activation of human SIRT1 expressed in Escherichia coli BL21 (DE3) assessed as concentration required to increase 50% enzyme activity by fluorescence polarization assay

Oc1ccc(/C=C/c2cc(O)cc(O)c2)cc1
EC1.5: 46 µM
